Assay results: patent US20230340011A1 (Asteroid Therapeutics, priority 2022, published 2023)
pEC50: −log10 of the molar value.

Amino acid sequences for entries named in this document (tags omitted).
UniProt P55055, whole entry: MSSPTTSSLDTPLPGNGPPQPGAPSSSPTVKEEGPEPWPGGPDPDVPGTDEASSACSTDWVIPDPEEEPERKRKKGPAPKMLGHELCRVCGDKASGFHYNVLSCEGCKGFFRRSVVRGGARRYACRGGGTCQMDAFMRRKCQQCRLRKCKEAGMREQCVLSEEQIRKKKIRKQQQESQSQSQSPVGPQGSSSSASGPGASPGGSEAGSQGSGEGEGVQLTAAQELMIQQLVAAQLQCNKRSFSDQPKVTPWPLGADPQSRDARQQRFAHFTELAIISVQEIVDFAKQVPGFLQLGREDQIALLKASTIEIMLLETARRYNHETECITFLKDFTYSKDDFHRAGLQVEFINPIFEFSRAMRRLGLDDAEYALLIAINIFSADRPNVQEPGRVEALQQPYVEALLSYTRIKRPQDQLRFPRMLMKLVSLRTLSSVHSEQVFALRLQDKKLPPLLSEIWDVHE

Each compound was assayed against LXRβ (Homo sapiens (Human), UniProt P55055) (assay: In vitro assay LXRβ: PathHunter NHR CHO cells, LXRβ / Steroid Receptor Co-activator Peptide enzyme fragment complementation). Settings: not given.
Type: cell-based
Procedure: PathHunter NHR CHO cells stably transfected with tagged full-length human LXRβ and a nuclear fusion protein containing Steroid Receptor Co-activator Peptide (SRCP). The full-length human LXRβ was tagged with the ProLink™ component of the DiscoverX Enzyme Fragment Complementation (EFC) system and the SRCP domain is fused to the enzyme acceptor component (EA) expressed in the nucleus. Cells were seeded in a total volume of 20 μL into white walled, 384-well microplates and incubated at 37° C. overnight prior to testing. Assay media contained charcoal-dextran filtered serum to reduce the level of hormones present. Final assay vehicle concentration was 1%. […] Microplates were read following signal generation with a PerkinElmer Envision instrument for chemiluminescent signal detection.

| SMILES | pEC50 |
| --- | --- |
| CC#CC1(O)CCN(C(=O)CC[C@@H](C)[C@H]2CC[C@H]3[C@@H]4CC=C5C[C@@H](O)CC[C@]5(C)[C@H]4CC[C@]23C)CC1 [Example 90, (R)-4-((3S,8S,9S,10R,13R,14S,17R)-3-hydroxy-10,13-dimethyl-2,3,4,7,8,9,10,11,12,13,14,15,16,17-tetradecahydro-1H-cyclopenta[a]phenanthren-17-yl)-1-(4-hydroxy-4-(prop-1-yn-1-yl)piperidin-1-yl)pentan-1-one] | 6.00 to 6.60 |
| CCCCC1(O)CCN(C(=O)CC[C@@H](C)[C@H]2CC[C@H]3[C@@H]4CC=C5C[C@@H](O)CC[C@]5(C)[C@H]4CC[C@]23C)CC1 [Example 92, (R)-1-(4-butyl-4-hydroxypiperidin-1-yl)-4-((3S,8S,9S,10R,13R,14S,17R)-3-hydroxy-10,13-dimethyl-2,3,4,7,8,9,10,11,12,13,14,15,16,17-tetradecahydro-1H-cyclopenta[a]phenanthren-17-yl)pentan-1-one] | 6.00 to 6.60 |
| CC(C)CC1(O)CCN(C(=O)CC[C@@H](C)[C@H]2CC[C@H]3[C@@H]4CC=C5C[C@@H](O)CC[C@]5(C)[C@H]4CC[C@]23C)CC1 [Example 93, (R)-4-((3S,8S,9S,10R,13R,14S,17R)-3-hydroxy-10,13-dimethyl-2,3,4,7,8,9,10,11,12,13,14,15,16,17-tetradecahydro-1H-cyclopenta[a]phenanthren-17-yl)-1-(4-hydroxy-4-isobutylpiperidin-1-yl) pentan-1-one] | > 6.60 |
| C[C@H](CCC(=O)N1CCC(O)(C(F)F)CC1)[C@H]1CC[C@H]2[C@@H]3CC=C4C[C@@H](O)CC[C@]4(C)[C@H]3CC[C@]12C [Example 128, (R)-1-(4-(difluoromethyl)-4-hydroxypiperidin-1-yl)-4-((3S,8S,9S,10R,13R,14S,17R)-3-hydroxy-10,13-dimethyl-2,3,4,7,8,9,10,11,12,13,14,15,16,17-tetradecahydro-1H-cyclopenta[a]phenanthren-17-yl)pentan-1-one] | > 6.60 |
| CCC1(O)CCN(C(=O)CC[C@@H](C)[C@H]2CC[C@H]3[C@@H]4CC=C5C[C@@H](O)CC[C@]5(C)[C@H]4CC[C@]23C)CC1 [Example 129, (R)-1-(4-ethyl-4-hydroxypiperidin-1-yl)-4-((3S,8S,9S,10R,13R,14S,17R)-3-hydroxy-10,13-dimethyl-2,3,4,7,8,9,10,11,12,13,14,15,16,17-tetradecahydro-1H-cyclopenta[a]phenanthren-17-yl)pentan-1-one] | > 6.60 |
| C=CC1(O)CCN(C(=O)CC[C@@H](C)[C@H]2CC[C@H]3[C@@H]4CC=C5C[C@@H](O)CC[C@]5(C)[C@H]4CC[C@]23C)CC1 [Example 146, (R)-4-((3S,8S,9S,10R,13R,14S,17R)-3-hydroxy-10,13-dimethyl-2,3,4,7,8,9,10,11,12,13,14,15,16,17-tetradecahydro-1H-cyclopenta[a]phenanthren-17-yl)-1-(4-hydroxy-4-vinylpiperidin-1-yl) pentan-1-one] | > 6.60 |
| CCCC1(O)CCN(C(=O)CC[C@@H](C)[C@H]2CC[C@H]3[C@@H]4CC=C5C[C@@H](O)CC[C@]5(C)[C@H]4CC[C@]23C)CC1 [Example 148, (R)-4-((3S,8S,9S,10R,13R,14S,17R)-3-hydroxy-10,13-dimethyl-2,3,4,7,8,9,10,11,12,13,14,15,16,17-tetradecahydro-1H-cyclopenta[a]phenanthren-17-yl)-1-(4-hydroxy-4-propylpiperidin-1-yl) pentan-1-one] | > 6.60 |
| CC(C)C1(O)CCN(C(=O)CC[C@@H](C)[C@H]2CC[C@H]3[C@@H]4CC=C5C[C@@H](O)CC[C@]5(C)[C@H]4CC[C@]23C)CC1 [Example 149, (R)-4-((3S,8S,9S,10R,13R,14S,17R)-3-hydroxy-10,13-dimethyl-2,3,4,7,8,9,10,11,12,13,14,15,16,17-tetradecahydro-1H-cyclopenta[a]phenanthren-17-yl)-1-(4-hydroxy-4-isopropylpiperidin-1-yl) pentan-1-one] | 6.00 to 6.60 |
| C[C@H](CCC(=O)N1CCC(O)(C2CCC2)CC1)[C@H]1CC[C@H]2[C@@H]3CC=C4C[C@@H](O)CC[C@]4(C)[C@H]3CC[C@]12C [Example 194, (R)-1-(4-cyclobutyl-4-hydroxypiperidin-1-yl)-4-((3S,8S,9S,10R,13R,14S,17R)-3-hydroxy-10,13-dimethyl-2,3,4,7,8,9,10,11,12,13,14,15,16,17-tetradecahydro-1H-cyclopenta[a]phenanthren-17-yl)pentan-1-one] | 5.00 to 6.00 |
| COCCOC(=O)N1CCN(C(=O)CC[C@@H](C)[C@H]2CC[C@H]3[C@@H]4CC=C5C[C@@H](O)CC[C@]5(C)[C@H]4CC[C@]23C)CC1 [Example 280, 2-hydroxyethyl 4-[(4R)-4-[(1R,3aS,3bS,7S,9aR,9bS,11aR)-7-hydroxy-9a,11a-dimethyl-1H,2H,3H,3aH,3bH,4H,6H,7H,8H,9H,9aH,9bH,10H,11H,11aH-cyclopenta[a]phenanthren-1-yl]pentanoyl]piperazine-1-carboxylate] | < 5.00 |
| C#CC1(OC)CCN(C(=O)CC[C@@H](C)[C@H]2CC[C@H]3[C@@H]4CC=C5C[C@@H](O)CC[C@]5(C)[C@H]4CC[C@]23C)CC1 [Example 330, (R)-1-(4-ethynyl-4-methoxypiperidin-1-yl)-4-((3S,8S,9S,10R,13R,14S,17R)-3-hydroxy-10,13-dimethyl-2,3,4,7,8,9,10,11,12,13,14,15,16,17-tetradecahydro-1H-cyclopenta[a]phenanthren-17-yl)pentan-1-one] | 6.00 to 6.60 |
| C[C@H](CCC(=O)N1CCC(O)(c2ccncc2)CC1)[C@H]1CC[C@H]2[C@@H]3CC=C4C[C@@H](O)CC[C@]4(C)[C@H]3CC[C@]12C [Example 344, (R)-4-((3S,8S,9S,10R,13R,14S,17R)-3-hydroxy-10,13-dimethyl-2,3,4,7,8,9,10,11,12,13,14,15,16,17-tetradecahydro-1H-cyclopenta[a]phenanthren-17-yl)-1-(4-hydroxy-4-(pyridin-4-yl)piperidin-1-yl)pentan-1-one] | < 5.00 |

Same assay, conditions: read-out: LXRβ PPI

| SMILES | pEC50 |
| --- | --- |
| C#CC1(O)CCN(C(=O)CC[C@@H](C)[C@H]2CC[C@H]3[C@@H]4CC=C5C[C@@H](O)CC[C@]5(C)[C@H]4CC[C@]23C)CC1 [Example 147, (R)-1-(4-ethynyl-4-hydroxypiperidin-1-yl)-4-((3S,8S,9S,10R,13R,14S,17R)-3-hydroxy-10,13-dimethyl-2,3,4,7,8,9,10,11,12,13,14,15,16,17-tetradecahydro-1H-cyclopenta[a]phenanthren-17-yl)pentan-1-one] | > 6.60 |
| C[C@H](CCC(=O)N1CCC(O)(CO)CC1)[C@H]1CC[C@H]2[C@@H]3CC=C4C[C@@H](O)CC[C@]4(C)[C@H]3CC[C@]12C [Example 150, (R)-4-((3S,8S,9S,10R,13R,14S,17R)-3-hydroxy-10,13-dimethyl-2,3,4,7,8,9,10,11,12,13,14,15,16,17-tetradecahydro-1H-cyclopenta[a]phenanthren-17-yl)-1-(4-hydroxy-4-(hydroxymethyl)piperidin-1-yl)pentan-1-one] | > 6.60 |
| C[C@H](CCC(=O)N1CCC(O)(CC(F)(F)F)CC1)[C@H]1CC[C@H]2[C@@H]3CC=C4C[C@@H](O)CC[C@]4(C)[C@H]3CC[C@]12C [Example 152, (R)-4-((3S,8S,9S,10R,13R,14S,17R)-3-hydroxy-10,13-dimethyl-2,3,4,7,8,9,10,11,12,13,14,15,16,17-tetradecahydro-1H-cyclopenta[a]phenanthren-17-yl)-1-(4-hydroxy-4-(2,2,2-trifluoroethyl)piperidin-1-yl) pentan-1-one] | > 6.60 |
| CCN(CC)C(=O)C(=O)O[C@@H](C)[C@H]1CC[C@H]2[C@@H]3CC=C4C[C@@H](O)CC[C@]4(C)[C@H]3CC[C@]12C [Example 154, (1S)-1-[(1S,3aS,3bS,7S,9aR,9bS,11aS)-7-hydroxy-9a,11a-dimethyl-1H,2H,3H,3aH,3bH,4H,6H,7H,8H,9H,9aH,9bH,10H,11H,11aH-cyclopenta[a]phenanthren-1-yl]ethyl (diethylcarbamoyl)formate] | > 6.60 |
| COc1cccnc1CC[C@@H](C)[C@H]1CC[C@H]2[C@@H]3CC=C4C[C@@H](O)CC[C@]4(C)[C@H]3CC[C@]12C [Example 186, (1R,3aS,3bS,7S,9aR,9bS,11aR)-1-[(2R)-4-(3-methoxypyridin-2-yl)butan-2-yl]-9a,11a-dimethyl-1H,2H,3H,3aH,3bH,4H,6H,7H,8H,9H,9aH,9bH,10H,11H,11aH-cyclopenta[a]phenanthren-7-ol] | > 6.60 |
| C[C@H](CCC(=O)N1CCCC(c2ccncc2)C1)[C@H]1CC[C@H]2[C@@H]3CC=C4C[C@@H](O)CC[C@]4(C)[C@H]3CC[C@]12C (stereo partly drawn) [Example 346, (4R)-4-((3S,8S,9S,10R,13R,14S,17R)-3-hydroxy-10,13-dimethyl-2,3,4,7,8,9,10,11,12,13,14,15,16,17-tetradecahydro-1H-cyclopenta[a]phenanthren-17-yl)-1-(3-(pyridin-4-yl)piperidin-1-yl)pentan-1-one] | > 6.60 |
| CCC1(O)CCN(C(=O)CC[C@@H](C)[C@H]2CC[C@H]3[C@@H]4CC=C5C[C@@](C)(O)CC[C@]5(C)[C@H]4CC[C@]23C)CC1 [Example 371, (R)-1-(4-ethyl-4-hydroxypiperidin-1-yl)-4-((3S,8S,9S,10R,13R,14S,17R)-3-hydroxy-3,10,13-trimethyl-2,3,4,7,8,9,10,11,12,13,14,15,16,17-tetradecahydro-1H-cyclopenta[a]phenanthren-17-yl)pentan-1-one] | > 6.60 |
